Assay results: patent publication US9358307B2, “Targeting of innate immune response to tumor site” (GAVISH-GALILEE BIO APPLICATIONS LTD., priority 2008, dated 2016)

Tests used:
SK-BR-3 cells = experiment: FACS binding of microbeads (Biomag™ particles, F-Beads) carrying anti-HER2 and LPS to SK-BR-3 cells; design: species or system human; conditions: FACS density blots; for fluorescent cell beads complexes in upper right (ur) quadrant: F-Beads 2 μm
Experimental: Samples were fluorescently stained with goat anti human Fc-FITC Ab's. 1 (black-filled red histogram): cells incubated with uncoated Biomag™; 2 (black histogram): cells incubated with Biomag™ bound to Biot-anti-HER2 Ab's; 3 (dark blue histogram): cells incubated with Biomag™ bound to 75% Biot-anti-HER2 Ab's and 25% Biot-LPS; 4 (purple histogram): cells incubated with Biomag™ bound to 50% Biot-anti-HER2 Ab's and 50% Biot-LPS; 5 (green histogram): cells incubated with Biomag™ bound to 25% Biot-anti-HER2 Ab's and 75% Biot-LPS; and 6 (light blue histogram): cells incubated with Biomag™ bound to Biot-LPS. […] No significant differences in fluorescence were shown between the samples containing Ab's at various ratios with LPS. […] Samples were fluorescently stained with goat anti-human Fc-FITC Ab's. SK-BR-3 cells were incubated with Biomag™ carrying: […] (B) Biot-anti-HER2 Ab's (Y-Mean 87.8); (C) 25% Biot-anti-HER2 and 75% Biot-LPS (Y-Mean 41.8); (D) 75% Biot-anti-HER2 Ab's and 25% Biot-LPS (Y-Mean 100.8); (E) 50% Biot-anti-HER2 Ab's and 50% Biot-LPS (Y-Mean 70.3); and (F) Unbound Biomag™ (Y-Mean 4.8). […] No significant differences in fluorescence were shown between the samples containing Ab's. […] Blots divided to quadrants, fluorescent cell beads complexes are shown in the upper right quadrant. SK-BR-3 cells were incubated with F-Beads carrying: (A) No beads, negative control (upper right (ur) 0.1%); (B) Cells incubated with soluble anti-HER2 stained with Goat anti human Fc-FITC Ab's, positive control (ur 96.9%); (C) Uncoated, empty beads (1) (ur 1.7%); […] (F) Biot-anti HER2, Anti HER2 beads (4) (ur 54.5%); […] Samples were fluorescently stained with goat anti human Fc-FITC Abs and examined by FACS.

[1] = test system: SK-BR-3 human breast cancer cells expressing HER2; experiment: FACS binding of biotinylated anti-HER2 mAb to SK-BR-3 cells; conditions: stained with streptavidin-FITC
Experimental: Monoclonal anti-HER2 Ab's were chemically conjugated to biotin. Biot-anti-HER2 were incubated with SK-BR-3 cells that were stained with streptavidin-FITC (STAVF). Incubated samples were then read by FACS. In the figure: 1 (black-filled red histogram): negative control (nc)—cells incubated only with STAVF; 2 (blue histogram): positive control (pc)—cells incubated with anti-HER2 Ab's stained with goat anti human Fc-FITC Ab's; 3 (black histogram): cells incubated with Biot-anti-HER2 Ab's and stained by STAVF; and 4 (green histogram): cells incubated with Biot not relevant Ab's and stained by STAVF.
Monoclonal anti-HER2 antibody (anti-HER2, Herceptin) was biotinylated using the Sulfo-NHS-LC-Biotin kit (Pierce) according to the manufacturer's instructions. Biotinylation rate was determined by HABA test (Acros, USA) according to the manufacturer's instructions. The ability of the biotinylated mAb (Biot-anti-HER2) to detect HER2 was examined by incubation with target cells (SK-BR-3 human breast cancer cells expressing HER2, ATCC) that were stained with STAVF (streptavidin-FITC, Jackson ImmunoResearch). Incubated samples were then examined using Flow Cytometry (FACS).

| Substance | fluorescent cell beads complexes in upper right (ur) quadrant (SK-BR-3 cells) [%] | also measured |
| --- | --- | --- |
| Anti HER2 beads: avidin-coated fluorescent polystyrene beads 2 μm (F-Beads) carrying Biot-anti HER2 | 54.5 |  |
| Biomag™ carrying Biot-anti-HER2 Ab's: avidin-coated approx. 1.5 μm Biomag™ iron oxide particles bound to biotinylated anti-HER2 antibody (Herceptin) |  | Y-Mean (SK-BR-3 cells; Biomag™ particles, stained with goat anti-human Fc-FITC Ab's): 87.8 |
| Biot-anti HER2: monoclonal anti-HER2 antibody (Herceptin) biotinylated with Sulfo-NHS-LC-Biotin |  | binding to SK-BR-3 cells (HER2 positive) [1]: binding |
| Trastuzumab [soluble anti-HER2, reference compound] | 96.9 |  |
